Values joined by “and” are separate entries in the source; they are usually repeats but may differ in a detail not shown here. Identical values can stand only once. This is a selection; strong and weak results do not stand in their true shares.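 Method: cells in 96-well plates; compound added at one concentration; 48 h incubation; percent growth measured; values under 10 scored active.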 Active and inactive are the calls of the source.
Tests used:
Test in all cases: NCI-60 one-dose screen, 48 h (100 = growth as untreated, 0 = no growth, -100 = all killed)
Details in all cases: 10 µM unless noted
[1] = test system: NCI/ADR-RES ovarian
[2] = test system: T-47D breast
[3] = test system: BT-549 breast
[4] = test system: MDA-MB-435 melanoma
[5] = test system: SW-620 colon
[6] = test system: MCF7 breast
[7] = test system: HCT-116 colon
[8] = test system: HCC-2998 colon
[9] = test system: KM12 colon

Measured: growth

CCN(CC)[P+](c1ccc(OC)cc1OC)(N(CC)CC)N(CC)CC
inactive: [1] 98.8% | [2] 15.6% | [3] 27.1% | [4] 19.1% | [5] 42.3% | [6] 12.6% | [7] 29% | [8] 43.2%

CCOP(=S)(OCC)SCCCl
inactive: [1] 105% | [2] 98.2% | [3] 106% | [4] 97.7% | [5] 101% | [6] 97.5% | [7] 106% | [8] 96.7% | [9] 104%

CN(CCCl)CCC(=O)c1ccccc1
inactive: [1] 104% | [2] 95.8% | [3] 103% | [4] 97.5% | [5] 92.6% | [6] 66.9% | [7] 97.2% | [8] 105% | [9] 90.1%

O=C(O)Cc1ccc(N(CCCl)CCCl)cc1
inactive: [1] 101% | [2] 105% | [3] 105% | [4] 103% | [5] 93.4% | [6] 93.7% | [7] 112% | [8] 95.4% | [9] 105%

COc1cc([N+](=O)[O-])c([N+](=O)[O-])cc1OC
inactive: [1] 105% and 106% | [2] 94.1% and 109% | [3] 90.7% and 112% | [4] 98.9% and 115% | [5] 103% and 108% | [6] 85.4% and 104% | [7] 104% and 105% | [8] 111% and 99.1% | [9] 103% and 106%

O=P1(N(CCCl)CCCl)OCCC2CCCCN21 (configuration not stated)
inactive: [1] 109% | [2] 109% | [3] 104% | [4] 111% | [5] 108% | [6] 99.1% | [7] 104% | [8] 102% | [9] 108%

c1cc(-c2nn[nH]n2)ccc1-c1nn[nH]n1
inactive: [1] 102% | [2] 99.2% | [3] 109% | [4] 90.5% | [5] 110% | [6] 95.4% | [7] 108% | [8] 99.6% | [9] 103%

O=C(CCC(=O)Oc1c(Cl)cc([N+](=O)[O-])cc1[N+](=O)[O-])Oc1c(Cl)cc([N+](=O)[O-])cc1[N+](=O)[O-]
inactive: [1] 109% | [2] 94.3% | [3] 109% | [4] 107% | [5] 108% | [6] 105% | [7] 111% | [8] 107% | [9] 109%

Cc1ccc(S(=O)(=O)CN(CCCl)CCCl)cc1
inactive: [1] 110% | [2] 95% | [3] 109% | [4] 104% | [5] 114% | [6] 85.6% | [7] 109% | [8] 103% | [9] 108%

COC(=O)C1(C)COP(=O)(N2CCCC2)OC1 (configuration not stated)
inactive: [1] 99.9% | [2] 98.2% | [3] 109% | [4] 109% | [5] 101% | [6] 94.6% | [7] 105% | [8] 102% | [9] 98%

C/C(N)=N\P(=O)(OCc1ccccc1)OCc1ccccc1
inactive: [1] 98.6% | [2] 115% | [3] 106% | [4] 104% | [5] 103% | [6] 98.7% | [7] 98.5% | [8] 107% | [9] 105%

O=P(O)(O)F
inactive: [1] 111% | [2] 106% | [3] 111% | [4] 102% | [5] 102% | [6] 100% | [7] 109% | [8] 113% | [9] 102%

S=P1(S)SC(Nc2ccccc2)CN1c1ccccc1 (configuration not stated)
inactive: [1] 104% | [2] 101% | [3] 115% | [4] 107% | [5] 103% | [6] 95.4% | [7] 103% | [8] 111% | [9] 100%

CCOP(=O)(NC1CCCCC1)OCC
inactive: [1] 100% | [2] 101% | [3] 99.5% | [4] 108% | [5] 105% | [6] 99.3% | [7] 96.8% | [8] 102% | [9] 103%

O=[N+]([O-])c1ccc(CCCCCCc2ccc([N+](=O)[O-])cc2[N+](=O)[O-])c([N+](=O)[O-])c1
inactive: [1] 97% | [2] 65.5% | [3] 91.8% | [4] 99.1% | [5] 90.8% | [6] 94.5% | [7] 86% | [8] 102% | [9] 90%

CCCCOP(N)(=O)OCCCC
inactive: [1] 104% | [2] 96.8% | [3] 105% | [4] 106% | [5] 96.8% | [6] 95% | [7] 104% | [8] 108% | [9] 115%

CC1CN1P(=O)(Nc1ncccn1)N1CC1C (configuration not stated)
inactive: [1] 95.5% | [2] 111% | [3] 106% | [4] 113% | [5] 106% | [6] 87.6% | [7] 105% | [8] 95.6% | [9] 102%

O=[N+]([O-])N=C1NCCN1
inactive: [1] 118% and 103% | [2] 89.3% and 104% | [3] 124% and 99.4% | [4] 108% and 109% | [5] 101% and 98.4% | [6] 106% and 110% | [7] 107% and 99% | [8] 102% and 104% | [9] 98.3% and 109%

O=P1(N(CCCl)CCCl)OCCCN1CCCl (configuration not stated)
inactive: [1] 112% | [2] 110% | [3] 100% | [4] 116% | [5] 103% | [6] 122% | [7] 106% | [8] 110% | [9] 106%

O=[As](O)(c1ccc(Cl)cc1)C1CCCCC1O (configuration not stated)
inactive: [1] 95.8% | [2] 75.6% | [3] 116% | [4] 104% | [5] 74.3% | [6] 73.2% | [7] 83.4% | [8] 101% | [9] 104%

COC(=O)C1(C)COP(=O)(N2CCCCCC2)OC1 (configuration not stated)
inactive: [1] 99.4% | [2] 98% | [3] 107% | [4] 107% | [5] 108% | [6] 103% | [7] 101% | [8] 94.8% | [9] 109%

Cc1nn(Cc2ccccc2)c(C)c1C1(O)C[C@H](CC#N)OC1=O (some centres not stated)
inactive: [1] 67.3% | [2] 118% | [3] 95.8% | [4] 121% | [5] 110% | [6] 120% | [7] 109% | [8] 11.2% | [9] 113%

ClCCN1Cc2ccccc2C1
inactive: [1] 107% | [2] 93.5% | [3] 115% | [4] 94.7% | [5] 89.4% | [6] 97.7% | [7] 92.2% | [8] 99.1% | [9] 99.8%

CN(C)C(=O)Oc1ccc(/C=N/NC(N)=S)nc1
inactive: [1] 94.1% | [2] 99.1% | [3] 95.9% | [4] 94.7% | [5] 92.5% | [6] 85.1% | [7] 93.5% | [8] 97.8% | [9] 91.7%

Nc1cccc2ccc([As](=O)(O)O)cc12
inactive: [1] 104% | [2] 103% | [3] 107% | [4] 116% | [5] 95.9% | [6] 94.2% | [7] 102% | [8] 97.5% | [9] 106%

Cc1cc([N+](=O)[O-])cc([N+](=O)[O-])c1O
inactive: [1] 105% | [2] 98.7% | [3] 108% | [4] 112% | [5] 102% | [6] 96.3% | [7] 102% | [8] 104% | [9] 105%

COC(=O)N(C)[N+](=O)[O-]
inactive: [1] 115% | [2] 101% | [3] 99.7% | [4] 106% | [5] 109% | [6] 92.8% | [7] 103% | [8] 110% | [9] 115%

O=[N+]([O-])c1ccc(Nc2ccc(Oc3ccc([N+](=O)[O-])cc3[N+](=O)[O-])cc2)c([N+](=O)[O-])c1
inactive: [1] 66.9% | [2] 65.7% | [3] 46.7% | [4] 54% | [5] 73% | [6] 76.2% | [7] 67.1% | [8] 87.5% | [9] 81.5%

O=[As](O)(O)c1cccnc1
inactive: [1] 122% | [2] 104% | [3] 115% | [4] 107% | [5] 107% | [6] 98.4% | [7] 101% | [8] 120% | [9] 112%

NC(=S)N/N=C/c1ccc(N(CCF)CCCl)cc1
inactive: [1] 100% | [2] 60.1% | [3] 124% | [4] 87.9% | [5] 91.8% | [6] 73.2% | [7] 91% | [8] 93.3% | [9] 108%

O=[N+]([O-])c1cc(Oc2ccc([N+](=O)[O-])cc2C(F)(F)F)cc([N+](=O)[O-])c1
inactive: [1] 91.5% | [2] 88% | [3] 94.3% | [4] 110% | [5] 112% | [6] 99.6% | [7] 90.9% | [8] 104% | [9] 102%

CCCCOP(=O)(OCCCC)N1CCCC1C(=O)O (configuration not stated)
inactive: [1] 104% | [2] 87.7% | [3] 102% | [4] 106% | [5] 98.3% | [6] 97.4% | [7] 96.5% | [8] 111% | [9] 108%

From PubChem BioAssay (NCI)
